Measurements as given in PMC2732992 (Proteins, 2009).

Sequences of proteins named here, by UniProt entry; tags and fusion partners are left off. A change or cut given only in a name is not applied to a line headed by its entry.
UniProt P19492: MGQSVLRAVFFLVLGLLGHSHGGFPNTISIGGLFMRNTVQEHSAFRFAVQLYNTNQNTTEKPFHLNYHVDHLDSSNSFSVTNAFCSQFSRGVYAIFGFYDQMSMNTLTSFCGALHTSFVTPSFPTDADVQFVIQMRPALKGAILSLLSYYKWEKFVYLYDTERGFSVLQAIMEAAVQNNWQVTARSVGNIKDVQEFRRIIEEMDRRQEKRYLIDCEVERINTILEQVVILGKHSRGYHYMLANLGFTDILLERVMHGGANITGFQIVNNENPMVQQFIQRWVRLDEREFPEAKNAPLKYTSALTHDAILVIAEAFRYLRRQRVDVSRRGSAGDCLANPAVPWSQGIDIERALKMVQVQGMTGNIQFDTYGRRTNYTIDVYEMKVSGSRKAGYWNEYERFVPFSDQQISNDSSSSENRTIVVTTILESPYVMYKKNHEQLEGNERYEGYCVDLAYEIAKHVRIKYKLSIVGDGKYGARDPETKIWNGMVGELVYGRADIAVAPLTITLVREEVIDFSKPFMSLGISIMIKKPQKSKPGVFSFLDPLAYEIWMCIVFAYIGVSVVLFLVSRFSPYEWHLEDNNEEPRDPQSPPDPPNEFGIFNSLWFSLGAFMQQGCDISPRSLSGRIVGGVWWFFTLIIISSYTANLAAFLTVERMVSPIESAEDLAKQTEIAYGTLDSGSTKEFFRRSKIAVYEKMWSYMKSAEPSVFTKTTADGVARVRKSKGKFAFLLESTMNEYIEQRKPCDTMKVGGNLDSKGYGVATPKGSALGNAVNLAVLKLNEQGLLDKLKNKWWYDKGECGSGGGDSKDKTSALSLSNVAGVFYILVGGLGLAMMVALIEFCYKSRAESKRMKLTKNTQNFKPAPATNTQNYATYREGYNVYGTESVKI

Biological target: GluR3i S1S2 domain (Rattus norvegicus, UniProt P19492, DEL531-655/S657T/V656G)
Experiment: biochemical

Structure (SMILES): Cc1onc(O)c1CC(N)C(=O)O (stereo not drawn) [[^3H]AMPA, α-amino-3-hydroxy-5-methyl-4-isoxazole-propionic acid]
- Kd: 43 ± 5 nM
